Patent US20260022340A1, “ATRIOVENTRICULAR NODE-LIKE PACEMAKER CELLS” (UNIVERSITY HEALTH NETWORK, priority 2022, published 2026)

Tested on: human cardiac progenitors
Assay: Induction of AVN phenotype in hPSC-derived cardiac progenitors, flow cytometry for NKX2-5+TBX3+ myocytes at day 20
Format: cell-based
Method: First, hPSCs were incubated in media containing BMP and Rho-associated protein kinase (ROCK) inhibitor on an orbital shaker to generate embryoid bodies (differentiation protocol day: 0). Then, cardiogenic mesoderm was induced using media containing 1-100 ng/mL BMP4, 1-100 ng/ml Activin A, 1-20 ng/mL bFGF, and 1-10 μM CHIR-99021 (differentiation protocol day: 1). […] The cardiogenic mesoderm can be analyzed at day 3/4 of differentiation for the expression of PDGFRa, RALDH2 and CD235a, and should be PDGFRa+RALDH2− and CD235a^low (max 50% positive).
Next, cardiac progenitors were induced using media that contained 0.5-10 μM IWP2 and 1-20 ng/mL VEGF (differentiation protocol day: 3). At this stage, the cardiac progenitors may be a mixed population of early stage (NKX2-5^−) and late stage (NKX2-5^+) cardiac progenitors which may be contractile or not. The cardiac progenitors were induced into an AVN phenotype between days 8-18, which yielded relatively more NKX2^30 -5^+TBX3^+ myocytes when carried out between days 8-11 (FIG. 3A,B), using media that contained 3-15 μM CHIR-99021 and optionally contained 5 ng/mL VEGF (FIG. 4A,B). Relatively more NKX2-5^+TBX3^+ myocytes were induced when CHIR-99021 was used at 12-15 μM. Alternatively, the AVN phenotype was induced between days 5-15 (FIG. 5A) using media that contained 50-400 ng/mL BMP2 and optionally contained 5 ng/mL VEGF (FIG. 5B). Relatively more NKX2-5^+TBX3^+ myocytes were induced when BMP2 was applied between days 5-8 and when used at 200-400 ng/mL. Culture was continued in media that contained 5 ng/mL VEGF until day 12 of the differentiation protocol. The culture was maintained until day 20 of the differentiation protocol before analysis. Treatment with 15 μM CHIR-99021 from day 8-11 results in 72=10% NKX2-5^+ TBX3^+myocytes of total cells present in culture at day 20. Treatment with 400 ng/ml BMP2 from day 5-8 results in 67±10% NKX2-5^30 TBX3 myocytes of total cells present in culture at day 20. FIGS. 3B, 4B, 5A and 5B present the percentage of NKX2-5^+ TBX3^+ myocytes of total cells present in the culture.
A NKX2-5:GFP+TBX3:tdTomato+ transgenic double reporter hPSC line was cultured using the protocol described in Example 1. AVNLPCs were identified and isolated using Fluorescence-activated cell sorting (FACS), based on their expression of NKX2-5 and TBX3 and the associated expression of the fluorescent reporter (FIG. 2).

B1: BMP2: bone morphogenetic protein (BMP) component, activator of BMP signaling (protein, UniProt P12643 283-396, looked up)
Bone morphogenetic protein 2: QAKHKQRKRLKSSCKRHPLYVDFSDVGWNDWIVAPPGYHAFYCHGECPFPLADHLNSTNHAIVQTLVNSVNSKIPKACCVPTELSAISMLYLDENEKVVLKNYQDMVVEGCGCR
For B1, the “Percentage of AVNLPCs by timepoint of treatment” value (50 ng/ml BMP2 from day 5-8 versus other timepoints, n=5 (FIG. 5A)) was “highest percentage”, the “NKX2-5+TBX3+ myocytes of total cells present in culture at day 20” value (400 ng/ml BMP2 from day 5-8) was 67±10% and the “BMP2 concentration at which relatively more NKX2-5+TBX3+ myocytes were induced” value (50-400 ng/mL used, days 5-8) was 200 to 400 ng/mL. The “BMP2 concentration giving highest percentage of AVNLPCs” value (treatment day 5-8, n=5 (FIG. 5B)) was 200 to 400 ng/mL.
